Our source for the outcome values is PubChem BioAssay AID624138 (Broad Institute, 2012).

Amino acid sequences for entries named in this document (tags omitted).
UniProt P40763, whole entry: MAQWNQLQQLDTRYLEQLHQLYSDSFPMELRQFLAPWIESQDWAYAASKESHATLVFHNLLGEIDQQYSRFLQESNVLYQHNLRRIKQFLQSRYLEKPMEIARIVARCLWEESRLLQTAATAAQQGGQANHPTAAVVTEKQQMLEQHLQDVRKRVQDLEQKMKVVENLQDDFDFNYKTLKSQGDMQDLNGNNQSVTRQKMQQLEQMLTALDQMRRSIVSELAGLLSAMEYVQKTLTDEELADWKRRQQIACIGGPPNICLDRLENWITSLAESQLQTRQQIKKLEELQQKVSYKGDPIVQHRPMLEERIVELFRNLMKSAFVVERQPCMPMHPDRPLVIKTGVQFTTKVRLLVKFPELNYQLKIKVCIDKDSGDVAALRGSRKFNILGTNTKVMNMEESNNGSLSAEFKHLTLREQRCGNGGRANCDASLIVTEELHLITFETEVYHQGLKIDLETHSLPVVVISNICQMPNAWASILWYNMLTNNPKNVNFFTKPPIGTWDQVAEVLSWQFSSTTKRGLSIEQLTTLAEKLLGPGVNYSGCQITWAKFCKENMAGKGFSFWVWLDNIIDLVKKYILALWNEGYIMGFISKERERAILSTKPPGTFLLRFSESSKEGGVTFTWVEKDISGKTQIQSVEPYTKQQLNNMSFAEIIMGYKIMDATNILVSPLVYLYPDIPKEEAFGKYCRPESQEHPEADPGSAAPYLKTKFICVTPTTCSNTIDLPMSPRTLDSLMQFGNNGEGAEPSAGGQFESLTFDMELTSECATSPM

This is a selection; strong and weak results do not stand in their true shares. Some salts and complexes are drawn in separate pieces, as the source files them; their charges need not balance. Activity calls are given as the source filed them.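 The calls were made as follows: active = compounds whose four printed spots each show fluorescence over background unusually high for their array block, chance value under 7%; inactive = the rest.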

In this test the target is Signal transducer and activator of transcription 3 (Homo sapiens) (UniProt P40763). Kind of test: small molecules binding His-tagged STAT3 – biochemical, small molecule microarray, single point, set 2, primary screen (AID 624138). To be noted: anti-His fluorescence.
Regarding `C/C1=C2N=C(/C=C3N=C(/C(C)=C4\[N-][C@@](C)([C@@H]5N=C1[C@](C)(CCC(=O)NC[C@@H](C)OP(=O)(O)O[C@H]1[C@@H](O)[C@@H](n6cnc7cc(C)c(C)cc76)O[C@@H]1CO)[C@H]5CC(N)=O)[C@@](C)(CC(N)=O)[C@@H]4CCC(N)=O)[C@@](C)(CC(N)=O)[C@@H]\3CCC(N)=O)C(C)(C)[C@@H]/2CCC(N)=O.[C-]#N.[Co+3]`, the compound was called inactive. Next, `CN(C(=O)Cc1ccc(Cl)c(Cl)c1)C1CCCCC1N1CCCC1` (stereo unspecified): “inactive”; `C=CC1C=C(C)C/C(=N\P(=O)(Oc2ccccc2)Oc2ccccc2)N1Cc1ccc(OC)cc1` (stereo unspecified): “inactive”. With `C/C1=C2N=C(/C=C3N=C(/C(C)=C4\[N-][C@@](C)([C@@H]5N=C1[C@](C)(CCC(=O)NCC(C)OP(=O)(O)O[C@@H]1[C@H](O)[C@H](n6cnc7cc(C)c(C)cc76)O[C@H]1CO)[C@H]5CC(N)=O)[C@@](C)(CC(N)=O)[C@@H]4CCC(N)=O)[C@@](C)(CC(N)=O)[C@@H]\3CCC(N)=O)C(C)(C)[C@@H]/2CCC(N)=O.[C-]#N.[Co+3]` (stereo partly specified) the entry was “inactive”. With `COc1ccc(CN2/C(=N\P(=O)(Oc3ccccc3)Oc3ccccc3)Cc3ccccc3C2C2CC2)cc1` (stereo unspecified) the entry was “inactive”; with `COc1ccc(CN2/C(=N/P(=O)(Oc3ccccc3)Oc3ccccc3)CC(C)=CC2C)cc1` (stereo unspecified), “inactive”.
